These are literature values, as cited in patent publication US20210206820A1 (Purdue Research Foundation, priority 2018, published 2021).

The chains behind the UniProt entries cited, without tags or fusion partners. Residues count along the entry.
UniProt P32241, 31-457: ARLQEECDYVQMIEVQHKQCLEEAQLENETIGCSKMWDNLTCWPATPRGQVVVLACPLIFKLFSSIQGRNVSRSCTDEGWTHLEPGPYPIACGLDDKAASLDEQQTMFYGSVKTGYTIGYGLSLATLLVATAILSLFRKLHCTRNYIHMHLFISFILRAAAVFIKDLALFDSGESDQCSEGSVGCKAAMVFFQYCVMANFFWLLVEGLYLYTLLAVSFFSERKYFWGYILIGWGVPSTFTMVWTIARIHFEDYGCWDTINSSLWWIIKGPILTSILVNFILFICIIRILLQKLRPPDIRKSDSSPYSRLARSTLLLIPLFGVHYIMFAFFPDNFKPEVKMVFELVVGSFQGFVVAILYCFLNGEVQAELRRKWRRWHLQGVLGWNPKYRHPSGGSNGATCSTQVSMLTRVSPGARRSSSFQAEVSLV

The data set concerns the target VPAC-1 (Homo sapiens, UniProt P32241). To be noted: VIP compared with PACAP; cited from earlier work.

Vasoactive Intestinal Peptide [VIP]: the “Affinity for VPAC-1” value is recorded as “equal affinity”.
